Results on one molecule are retold here after EP0180500A1, “Thieno and furo[2,3-c]pyrrole derivatives, process for their preparation and medicaments containing them” (LIPHA, LYONNAISE INDUSTRIELLE PHARMACEUTIQUE, priority 1984, dated 1986).

Amino acid sequences for entries named in this document (tags omitted).
UniProt P47747, whole entry: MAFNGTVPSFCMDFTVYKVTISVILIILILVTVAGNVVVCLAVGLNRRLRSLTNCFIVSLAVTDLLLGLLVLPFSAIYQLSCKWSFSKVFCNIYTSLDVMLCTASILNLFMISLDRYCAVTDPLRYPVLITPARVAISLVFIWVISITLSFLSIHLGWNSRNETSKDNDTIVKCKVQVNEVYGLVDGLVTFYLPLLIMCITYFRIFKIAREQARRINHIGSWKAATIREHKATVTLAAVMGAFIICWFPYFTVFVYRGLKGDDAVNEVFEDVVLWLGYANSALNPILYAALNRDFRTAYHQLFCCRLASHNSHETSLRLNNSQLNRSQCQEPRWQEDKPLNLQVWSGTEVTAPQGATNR

Each structure is given as a SMILES string.

The assay addresses récepteurs histaminiques H2 (Cavia porcellus, UniProt P47747). Put plainly: Isolated guinea-pig atrium (histamine chronotropic effect, H2 blockade).

For `CN/C(=N/CCSCc1nc[nH]c1C)NC#N` [Cimétidine, reference compound], the Kb was 115 nM.
